# Yeast mating assay 2: variants of the scFv Ab-91

All variants were tested on one target, the spike HR2 peptide PDVDLGDISGINAS (SARS-CoV-2).

Parent scFv Ab-91: VL joined to VH by a (GGGGS)3 linker. Changes lie in the heavy chain CDRs alone.
VL: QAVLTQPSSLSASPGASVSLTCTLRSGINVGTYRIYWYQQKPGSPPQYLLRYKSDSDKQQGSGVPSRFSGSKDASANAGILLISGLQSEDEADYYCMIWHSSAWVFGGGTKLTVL
VH: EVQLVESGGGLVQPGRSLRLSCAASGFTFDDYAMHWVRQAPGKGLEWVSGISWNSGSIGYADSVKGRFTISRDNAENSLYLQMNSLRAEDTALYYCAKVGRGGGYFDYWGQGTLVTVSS

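Variants in AAYL51 differ from the parent at up to three CDR positions; double and triple changes were sampled at random. Affinity was read by AlphaSeq, a pooled yeast mating assay with surface-displayed partners. After mating in shaken culture at 30 °C for 16 h, diploids were selected and their barcode pairs sequenced. A regression on co-assayed BCL2-family reference pairs converts the normalised counts of each replicate to an apparent Kd. There are three technical replicates.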

Substitutions are numbered in sequence along the VH above, starting at 1 (not Kabat). Numbers give log10(Kd / nM), so 0 is 1 nM and 3 is 1 µM. Smaller is tighter. An entry "ND" has no value in the source: the pair was not observed among the diploids in that replicate. This suggests poor binding but is not conclusive. Background: pairings of library AAYL51 with three empty control strains gave a value in 21% of cases (median 4.54, 5th percentile 3.26). Values in that range, when seen in few replicates, are hard to tell from nonspecific mating. The control count says in how many pairings with the empty strains this scFv gave a signal. Parent in this assay: reference entry 1.86, copy in this library 0.88.

Variant I51G/I58C/F106P showed ND, ND, ND (controls 0 of 9).
Variant R101M/G103T/Y105H showed 6.29, 6.85, 5.84 (controls 4 of 9).
Variant S55P/D62K showed ND, 4.55, ND (controls 1 of 9).
Variant M34P/V99G showed ND, ND, ND (controls 1 of 9).
Variant G50Y/S52K/S63H showed ND, ND, ND (controls 1 of 9).
Variant G50N/G104P/D107T showed ND, ND, ND (controls 0 of 9).
Variant T28D/V99C/Y105D showed 3.47, 3.21, 2.80 (controls 8 of 9).
Variant S55V/S57V/K65A showed 3.18, 3.41, 1.77 (controls 4 of 9).
Variant N54T/S55E/V99Q showed 3.61, ND, ND (controls 0 of 9).
Variant A33S/A61M/V64K showed 5.12, 5.77, 6.35 (controls 6 of 9).
Variant H35E/V99M/F106R showed 3.94, 5.22, 4.29 (controls 4 of 9).
Variant T28A/S57Y/D107V showed 4.85, 2.59, ND (controls 0 of 9).
Variant D31K/A33C/G100D showed ND, ND, ND (controls 1 of 9).
Variant W53S/K65Q/G104P showed 4.77, 4.38, 5.60 (controls 4 of 9).
Variant G56I/G59K/G104P showed 5.75, ND, ND (controls 1 of 9).
Variant F29Q/W53Y/V99C showed ND, ND, ND (controls 1 of 9).
Variant F27L/N54P/Y108P showed ND, ND, ND (controls 3 of 9).
Variant T28M/W53T/S55Y showed ND, ND, ND (controls 1 of 9).
Variant G26R/I51Q/G104V showed ND, ND, 4.82 (controls 6 of 9).
Variant G26K/S57G/G59P showed ND, ND, ND (controls 0 of 9).
Variant T28H/D30A/H35G showed 5.57, 3.93, ND (controls 5 of 9).
Variant G56T/K65R/F106S showed ND, 4.68, 5.93 (controls 8 of 9).
Variant G56D/A61R/F106A showed ND, ND, 4.79 (controls 0 of 9).
Variant D31R/W53K/Y60F showed ND, ND, ND (controls 0 of 9).
Variant Y60E/S63A showed 2.95, ND, ND (controls 0 of 9).
Variant F27M/G56Q/V99Y showed ND, 4.09, ND (controls 2 of 9).
Variant H35P/V64N/R101C showed ND, ND, ND (controls 0 of 9).
Variant A33T/G102R/Y105V showed 4.25, ND, ND (controls 1 of 9).
Variant N54M/S55W/V99I showed ND, ND, ND (controls 1 of 9).
Variant G50W/N54E/D107N showed ND, ND, ND (controls 1 of 9).
Variant G50L/G104Q/F106E showed ND, 4.94, 3.95 (controls 4 of 9).
Variant Y32D/G56N/G104R showed ND, ND, ND (controls 0 of 9).
Variant G50Y/S57D/R101T showed ND, ND, ND (controls 3 of 9).
Variant S52K/W53S/Y60I showed 4.47, ND, ND (controls 2 of 9).
Variant T28K/Y32T/S63W showed 0.70, 0.72, -0.08 (controls 1 of 9).
Variant A33P/G59I/A61I showed ND, ND, ND (controls 1 of 9).
Variant A61R showed 2.30, 2.81, 3.55 (controls 0 of 9).

Values reported by Engelhart et al. 2022, doi:10.1038/s41597-022-01779-4 (FLAb copy).